Test results taken from ChEMBL document CHEMBL5528055, “Discovery and Identification of Novel 5-Hydroxy-4H-benzo[1,4]oxazin-3-one Derivatives as Potent β2-Adrenoceptor Agonists through Structure-Based Design, Synthesis, and Biological Evaluation” (J Med Chem, 2024).

Chains of the proteins cited; added tags and fusions are not shown.
UniProt P08588, whole entry: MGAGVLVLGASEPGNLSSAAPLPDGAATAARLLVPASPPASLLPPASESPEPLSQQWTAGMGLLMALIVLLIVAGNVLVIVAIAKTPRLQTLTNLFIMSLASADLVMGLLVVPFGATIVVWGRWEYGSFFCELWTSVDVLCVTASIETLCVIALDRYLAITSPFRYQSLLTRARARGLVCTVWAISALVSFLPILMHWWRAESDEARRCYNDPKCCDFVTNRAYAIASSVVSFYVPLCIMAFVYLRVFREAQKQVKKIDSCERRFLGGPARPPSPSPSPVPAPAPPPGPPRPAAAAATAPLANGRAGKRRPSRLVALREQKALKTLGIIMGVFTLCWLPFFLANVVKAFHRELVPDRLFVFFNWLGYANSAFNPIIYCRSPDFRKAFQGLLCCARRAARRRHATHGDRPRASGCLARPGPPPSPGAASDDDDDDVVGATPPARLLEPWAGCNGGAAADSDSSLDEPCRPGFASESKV

Molecular target: Beta-1 adrenergic receptor (Homo sapiens, UniProt P08588)

EC50: 0.151 nM
SMILES: O=C1COc2c(C(O)CNCCCc3cccc(F)c3)ccc(O)c2N1 (stereo unspecified)
